# Molecular target: Sodium-dependent dopamine transporter (Rattus norvegicus, UniProt P23977)
# Sequences of proteins named here, by UniProt entry; tags and fusion partners are left off.
# UniProt P23977, whole entry: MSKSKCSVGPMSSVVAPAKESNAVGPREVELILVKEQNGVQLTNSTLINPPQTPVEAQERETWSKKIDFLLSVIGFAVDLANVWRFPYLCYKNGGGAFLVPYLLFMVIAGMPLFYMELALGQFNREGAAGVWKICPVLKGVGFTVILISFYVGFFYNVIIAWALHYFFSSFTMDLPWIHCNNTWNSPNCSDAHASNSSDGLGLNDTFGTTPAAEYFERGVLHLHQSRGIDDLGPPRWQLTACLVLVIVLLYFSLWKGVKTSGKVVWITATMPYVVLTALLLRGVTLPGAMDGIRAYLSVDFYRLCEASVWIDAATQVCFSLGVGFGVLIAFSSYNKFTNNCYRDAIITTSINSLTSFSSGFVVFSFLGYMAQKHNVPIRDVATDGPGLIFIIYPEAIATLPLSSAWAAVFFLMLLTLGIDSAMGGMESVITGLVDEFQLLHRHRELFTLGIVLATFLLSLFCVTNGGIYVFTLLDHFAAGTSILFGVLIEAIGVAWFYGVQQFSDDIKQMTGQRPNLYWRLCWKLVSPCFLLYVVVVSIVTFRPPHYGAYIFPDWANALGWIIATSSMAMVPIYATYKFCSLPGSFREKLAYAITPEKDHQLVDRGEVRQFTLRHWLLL
# Test: Displacement of [3H]WIN-35428 from dopamine transporter in rat caudate putamen tissue
# Assay type: tissue-based
# Outline: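 Compounds were tested as oxalate salts unless noted; some were hydrochloride or fumarate. Values are mean ± SEM of three experiments, each run in triplicate.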
smiles,measurement,value
COC(=O)C[C@@H]1C2C[C@H](Cc3ccccc3)C(C[C@@H]1Cc1ccccc1)N2C (stereo partly specified),Ki,1560 nM

# From ChEMBL document CHEMBL1130279 (J Med Chem, 1997)
